Source: PubChem
Wnt act: activators of Wnt/beta-catenin signaling | Wnt/beta-catenin reporter cell assay, activator, plate reader | activation, % at 9.35 µM | 300,000 tested, 1.2% active; in the data active = activation above about 30%, passing the limit was not always enough
miR-122 sensor: miR-122 inhibition in Huh7 cells; activation (reporter increase), % at 12.5 µM; 340,000 tested, 0.3% active; Huh7 miR-122 Renilla luciferase sensor, 48 h; neutral wells = 0, positive control = 100;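 active = mean replicate activation score at least 90 and every replicate individually at or above 90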;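 note: higher luciferase means less miR-122 activity so hits act as miR-122 inhibitors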
TRPM1 prom inh: reduces MITF-dependent TRPM1 promoter luciferase signal; SK-MEL-5 TRPM1 promoter luciferase, 24 h; inhibition, % at 12.5 µM; 330,000 tested, 0.83% active; AID 488899;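 active = mean inhibition across replicates of 60% or more, whatever share of single replicates reaches that level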
Yeast UUG start: modulators of start codon recognition fidelity in yeast; AID 602363; hit rate 0.13% among 350,000; activity score, % at 18.7 µM; S. cerevisiae UUG-firefly luciferase reporter, luminescence/redox ratio;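 active = replicate mean at a twofold rise or more, about +100% in these data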;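 note: firefly luciferase made from a UUG start codon reports start codon fidelity; reporter light over untreated wells divided by growth signal over untreated wells; some hits fall short of that in this replicate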
MITF act: MITF TRPM1 promoter activation in melanoma cells | AID 588334 | 300,000 tested, 0.75% active | SK-MEL-5 TRPM1-promoter luciferase, 24 h; % of positive control, neutral wells = 0 | activation, % at 12.5 µM;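 active = mean activation of at least 80% with every replicate also reaching 80%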
PGC1a acetyl inh: modulators of PGC1a acetylation | U2OS PGC1a acetylation, AlphaScreen anti-acetyl-lysine; with virally co-expressed GCN5 acetyltransferase | inhibition, % at 15.6 µM | 350,000 tested, 0.17% active;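 active = every replicate shows inhibition of at least 40%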
Of the large screens only hits and unclear results are named; the others gave an inactive call. Shown are actives, neighbours in structure and some others; about 2.1% of the full set was active somewhere.

C[C@@H]1CN([C@@H](C)CO)C(=O)c2cc(NC(=O)C3CC3)ccc2O[C@H]1CN(C)Cc1ccc(Cl)c(Cl)c1	none (no result: Wnt act, TRPM1 prom inh, MITF act)
O=C(Oc1cccc(/C=N/NC(=O)c2ccccn2)c1)c1ccc([N+](=O)[O-])cc1	Wnt act 34
O=C(N/N=C/c1ccc(OC(=O)c2ccccc2Cl)cc1)c1cc(O)cc(O)c1	none (no result: miR-122 sensor, PGC1a acetyl inh)
O=C(N/N=C/c1ccc(OC(=O)c2ccccc2Cl)cc1)c1ccccn1	MITF act 96 (no result: Wnt act)
O=C(N/N=C/c1cc([N+](=O)[O-])ccc1N1CCCCCC1)c1ccccn1	none (no result: miR-122 sensor, Yeast UUG start, PGC1a acetyl inh)
O=C(C#Cc1ccccc1)c1ccco1	TRPM1 prom inh 99 (no result: PGC1a acetyl inh)
COc1cc2c(c(O)c1OC)C1Cc3ccc(OC)c(OC)c3CN1CC2 (stereo unspecified)	none (no result: TRPM1 prom inh, MITF act)
COc1ccc2cc1Oc1ccc(cc1)CC1c3c(cc(OC)c4c3Oc3cc5c(cc3O4)CCNC5C2)CCN1C (stereo unspecified)	TRPM1 prom inh 109 (no result: Wnt act)
COc1ccc2cc1Oc1ccc(cc1)C[C@H]1c3c(cc(OC)c4c3Oc3c(ccc5c3[C@H](C2)N(C)CC5)O4)CCN1C	TRPM1 prom inh 91 (no result: Wnt act, miR-122 sensor, PGC1a acetyl inh)
CCNC(=O)[C@@H]1[C@@H](CO)[C@@H]2Cn3c(ccc(-c4ccncc4)c3=O)[C@H]1N2Cc1ccccc1	none (no result: Wnt act, TRPM1 prom inh, Yeast UUG start, MITF act)
COc1cccc(S(=O)(=O)N(C)C[C@@H]2Oc3ncc(C#CC(C)(C)O)cc3C(=O)N([C@H](C)CO)C[C@@H]2C)c1	none (no result: Wnt act, TRPM1 prom inh, MITF act)
O=C1OC(CN(Cc2ccccc2)Cc2ccccc2)CN1N=Cc1ccc([N+](=O)[O-])o1 (stereo unspecified)	TRPM1 prom inh 82
C[C@@H]1CN([C@@H](C)CO)C(=O)Cc2cc(NC(=O)Cc3cn(C)c4ccccc34)ccc2O[C@H]1CN(C)S(=O)(=O)c1ccccc1	none (no result: Wnt act, TRPM1 prom inh, MITF act)
CCCCN1C(=O)/C(=C/C=C2\SCCN2C)SC1=S	MITF act 92 (no result: miR-122 sensor, Yeast UUG start, PGC1a acetyl inh)
C[C@H]1CN([C@@H](C)CO)C(=O)c2cccc(N(C)C)c2O[C@@H]1CN(C)Cc1ccc(Oc2ccccc2)cc1	none (no result: Wnt act, TRPM1 prom inh, MITF act)
CC1Oc2ccccc2C=C1/C=N/NC(=O)c1ccccc1 (stereo unspecified)	Wnt act 37, MITF act 89 (no result: miR-122 sensor, Yeast UUG start, PGC1a acetyl inh)
Cc1ccc(C(=O)N/N=C/C2=Cc3ccccc3OC2C)cc1 (stereo unspecified)	none (no result: miR-122 sensor, Yeast UUG start, PGC1a acetyl inh)
O=C(c1ccccn1)c1ccc2ccccc2n1	Wnt act 44 (no result: TRPM1 prom inh, MITF act)
O=C(NCc1ccccn1)c1ccc2ccccc2n1	none
O=C(/C=C/c1ccccc1)/C=C/c1ccccc1	TRPM1 prom inh 79 (no result: miR-122 sensor, PGC1a acetyl inh)
NC(=O)c1ccccc1N/C=C/C(=O)c1ccccc1	Wnt act 48 (no result: MITF act)
NC(=O)c1ccccc1NC(=O)/C=C/c1ccc(Cl)cc1	none
COC(=O)c1ccccc1N/C=C/C(=O)c1ccc(Br)cc1	none
NC(=O)c1ccccc1NC(=O)/C=C/c1ccccc1	Wnt act 74 (no result: PGC1a acetyl inh)
O=C(CC(C(=O)c1ccccc1)c1ccccc1)c1ccccc1 (stereo unspecified)	none (no result: Yeast UUG start, PGC1a acetyl inh)
CC(CN(C)Cc1ccccc1)OC(=O)c1ccc(F)cc1 (stereo unspecified)	none (no result: miR-122 sensor, Yeast UUG start, PGC1a acetyl inh)
O=C(c1ccc(Br)cc1)C(CN1CCOCC1)c1ccccc1 (stereo unspecified)	none (no result: PGC1a acetyl inh)
CN(Cc1cc(Cl)cc(Cl)c1)CC(C(=O)c1ccccc1)c1ccccc1 (stereo unspecified)	TRPM1 prom inh 84 (no result: Yeast UUG start)
CN(C)CC(C(=O)c1ccccc1)c1ccccc1 (stereo unspecified)	TRPM1 prom inh 91, PGC1a acetyl inh 139 (no result: Wnt act, Yeast UUG start)
O=C(c1ccccc1)C(CN1CCCCC1)c1ccccc1 (stereo unspecified)	TRPM1 prom inh 97
CCCN1[C@@H]2c3ccc(-c4ccncc4)c(=O)n3C[C@H]1[C@H](CO)[C@H]2C(=O)N1CCCCC1	none (no result: Wnt act, TRPM1 prom inh, Yeast UUG start, MITF act, PGC1a acetyl inh)
C[C@@H]1CN([C@@H](C)CO)C(=O)Cc2cc(NC(=O)Nc3ccccc3)ccc2O[C@H]1CN(C)Cc1ccc(C(=O)O)cc1	none (no result: Wnt act, TRPM1 prom inh, MITF act)
CC(=O)N(C)C[C@H]1Oc2ncc(C3=CCCC3)cc2C(=O)N([C@@H](C)CO)C[C@H]1C	none (no result: Wnt act, TRPM1 prom inh, MITF act)
Cc1cc(C(=O)Nc2ccc3c(c2)C(=O)N(C)[C@@H]2CC[C@@H](CC(=O)N[C@@H](C)c4ccccc4)O[C@@H]2CO3)no1	none (no result: Wnt act, TRPM1 prom inh, MITF act)
CCCOc1ccc(Cl)cc1/C=C1/C(=O)ON=C1C	none
CC1=NOC(=O)/C1=C\c1ccc(-c2ccc(Cl)cc2Cl)o1	TRPM1 prom inh 73
C=C(C)CNC(=O)CCc1nnc(Cc2cccc(C(F)(F)F)c2)o1	Wnt act 56 (no result: miR-122 sensor, Yeast UUG start, PGC1a acetyl inh)
CCCCCCCCCCCCCCCC[N+](C)(C)CCN(Cc1ccc(OC)cc1)c1ncccn1	TRPM1 prom inh 103 (no result: Wnt act, PGC1a acetyl inh)
CCOC(=O)/C(C#N)=C/Nc1ccccc1OC	MITF act 117 (no result: Wnt act)
CCOC(=O)C(=O)/C(C#N)=C/Nc1ccccc1	none
Cc1ccc(-c2ccc3c(c2)O[C@@H](CN(C)C(=O)Nc2ccc(C(F)(F)F)cc2)[C@H](C)CN([C@H](C)CO)S3(=O)=O)cc1	none (no result: Wnt act, TRPM1 prom inh, MITF act)
CCOc1ccc(N2C(=O)CC(SCCN)C2=O)cc1 (stereo unspecified)	Wnt act 34 (no result: MITF act)
CCOc1ccc(N2C(=O)CC(Cc3ccc(Br)cc3)C2=O)cc1 (stereo unspecified)	PGC1a acetyl inh 71 (no result: MITF act)
COC(=O)C1CCN(C(=O)c2ccc3nccnc3c2)CC1	none (no result: PGC1a acetyl inh)
COC(=O)C1CCN(C(=O)c2ccc3nc(-c4cccc(OC)c4)oc3c2)CC1	Wnt act 32 (no result: miR-122 sensor, PGC1a acetyl inh)
Cc1nn(C(C)C)c(C)c1CN1CCC(C(=O)Nc2cccc(-c3cccc(F)c3)c2)CC1	TRPM1 prom inh 61
C=CCn1cc(CN2CCC(C(=O)Nc3cccc(-c4cccc(Cl)c4)c3)CC2)c(C)n1	TRPM1 prom inh 75 (no result: PGC1a acetyl inh)
Cc1ccc(S(=O)(=O)Nc2ccc3c(c2)C(=O)N([C@@H](C)CO)C[C@@H](C)[C@H](CN(C)Cc2ccccc2)OCCCC[C@@H](C)O3)cc1	none (no result: Wnt act, TRPM1 prom inh, MITF act)
CCC(=O)N(C)C[C@@H]1Oc2cc(-c3ccc(OC)cc3)ccc2S(=O)(=O)N([C@@H](C)CO)C[C@@H]1C	none (no result: Wnt act, TRPM1 prom inh, MITF act)
Clc1ccc2oc(-c3ccccc3)cc(=NCCCN3CCOCC3)c2c1	Wnt act 57, MITF act 103 (no result: miR-122 sensor, Yeast UUG start)
O=C(Nc1ccc(O)cc1)c1cc2ccccc2c(=O)s1	MITF act 100
O=C(Nc1ccccc1)c1cc2ccccc2c(=O)s1	none (no result: Wnt act)
Cc1ccc(S(=O)(=O)Nc2ccc3c(c2)C(=O)N([C@@H](C)CO)C[C@H](C)[C@H](CN(C)C)OCCCC[C@@H](C)O3)cc1	none (no result: Wnt act, TRPM1 prom inh, Yeast UUG start, MITF act)
Cc1noc(C)c1S(=O)(=O)N(C)C[C@@H]1Oc2ccc(NS(=O)(=O)c3ccccc3)cc2CC(=O)N([C@H](C)CO)C[C@H]1C	none (no result: Wnt act, TRPM1 prom inh, MITF act)
C=CCN(CC(=O)Nc1cccnc1)S(=O)(=O)c1ccc(Cl)cc1	Wnt act 37 (no result: Yeast UUG start)
O=C(Cc1ccc(Cl)cc1)Nc1cccnc1	none (no result: MITF act)
CCN(CC)c1ccc(C(=C2C=CC(=[N+](CC)CC)C=C2)c2ccccc2)cc1	TRPM1 prom inh 109 (no result: miR-122 sensor, Yeast UUG start, PGC1a acetyl inh)
CCN(CC)c1ccc(C(=O)NNC(=O)CCl)cc1	none
